Test results taken from patent US20250195530A1, “POLQ INHIBITORS” (ASTRAZENECA AB, priority 2022, published 2025).

Protein sequences, listed by entry. Tags and fused reporters are not part of them. Residues count along the entry.
UniProt O75417, 1780-2590: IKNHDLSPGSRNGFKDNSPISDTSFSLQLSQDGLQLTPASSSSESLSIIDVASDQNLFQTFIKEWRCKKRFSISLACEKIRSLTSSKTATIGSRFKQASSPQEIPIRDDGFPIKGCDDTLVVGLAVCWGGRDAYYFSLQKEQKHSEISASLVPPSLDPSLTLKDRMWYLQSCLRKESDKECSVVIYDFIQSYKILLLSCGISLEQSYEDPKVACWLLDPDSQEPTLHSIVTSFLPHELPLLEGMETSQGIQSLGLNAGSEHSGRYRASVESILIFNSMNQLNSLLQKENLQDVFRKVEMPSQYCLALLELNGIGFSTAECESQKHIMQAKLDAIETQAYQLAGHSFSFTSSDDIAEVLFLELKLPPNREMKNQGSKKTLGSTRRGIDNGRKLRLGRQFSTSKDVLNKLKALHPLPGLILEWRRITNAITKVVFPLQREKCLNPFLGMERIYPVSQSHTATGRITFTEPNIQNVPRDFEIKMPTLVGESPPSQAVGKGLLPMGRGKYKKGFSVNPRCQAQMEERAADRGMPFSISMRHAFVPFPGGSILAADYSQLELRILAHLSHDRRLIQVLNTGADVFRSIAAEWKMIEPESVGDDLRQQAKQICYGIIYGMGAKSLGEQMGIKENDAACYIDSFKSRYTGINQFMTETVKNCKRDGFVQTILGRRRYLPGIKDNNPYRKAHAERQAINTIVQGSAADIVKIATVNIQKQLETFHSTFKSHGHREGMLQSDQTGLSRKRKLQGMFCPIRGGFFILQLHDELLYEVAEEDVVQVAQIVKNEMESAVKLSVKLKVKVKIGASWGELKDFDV

Biological target: isolated polymerase domain (I1780-V2590) of DNA polymerase theta (Polθ) (Homo sapiens (Human), UniProt O75417)
Test: biochemical

Row | IC50 [nM] | SMILES
1 | 5.01 | Cc1ccnc(Cn2c(-c3ccc(OCCN4CC5(CCN5)C4)cc3Cl)nc3c(OC4(C)CC4)ncnc32)c1 [Example T587, 8-(4-(2-(1,6-diazaspiro[3.3]heptan-6-yl)ethoxy)-2-chlorophenyl)-6-(1-methylcyclopropoxy)-9-((4-methylpyridin-2-yl)methyl)-9H-purine]
2 | 7.94 | Cc1ccnc(Cn2c(-c3cccc(OCCN4CC(O)C4)c3Cl)nc3c(OC4(C)CC4)ncnc32)c1 [Example T360, 1-(2-(2-chloro-3-(6-(1-methylcyclopropoxy)-9-((4-methylpyridin-2-yl)methyl)-9H-purin-8-yl)phenoxy)ethyl)azetidin-3-ol]
3 | 7.94 | CC1(Oc2ncnc3c2nc(-c2ccc(OCCC(=O)O)cc2Cl)n3Cc2cccc(C(F)(F)F)c2)CC1 [Example T151, 3-(3-chloro-4-(6-(1-methylcyclopropoxy)-9-(3-(trifluoromethyl)benzyl)-9H-purin-8-yl)phenoxy)propanoic acid]
4 | 20 | Cc1ccnc(Cn2c(-c3ccc(OCCN4CCNCC4)cc3Cl)nc3c(OC4(C)CC4)ncnc32)c1C [Example T597, 8-(2-chloro-4-(2-(piperazin-1-yl)ethoxy)phenyl)-9-((3,4-dimethylpyridin-2-yl)methyl)-6-(1-methylcyclopropoxy)-9H-purine]
5 | 12.6 | Cc1ccnc(Cn2c(-c3ccc(OCC(=O)N4CCNC(=O)C4)cc3Cl)nc3c(OC4(C)CC4)ncnc32)c1 [Example T432, 4-(2-(3-chloro-4-(6-(1-methylcyclopropoxy)-9-((4-methylpyridin-2-yl)methyl)-9H-purin-8-yl)phenoxy)acetyl)piperazin-2-one]
6 | 3.98 | Cc1cc(Cl)nc(Cn2c(-c3ccc(OCCN4CCNCC4)cc3Cl)nc3c(OC4(C)CC4)ncnc32)c1 [Example T524, 8-(2-chloro-4-(2-(piperazin-1-yl)ethoxy)phenyl)-9-((6-chloro-4-methylpyridin-2-yl)methyl)-6-(1-methylcyclopropoxy)-9H-purine]
7 | 7.94 | CC(=O)N1CCN(CCOc2ccc(-c3nc4c(OC5(C)CC5)ncnc4n3Cc3cc(C)ccn3)c(Cl)c2)CC1 [Example T607, 1-(4-(2-(3-chloro-4-(6-(1-methylcyclopropoxy)-9-((4-methylpyridin-2-yl)methyl)-9H-purin-8-yl)phenoxy)ethyl)piperazin-1-yl)ethan-1-one]
8 | 7.94 | CC1(Oc2ncnc3c2nc(-c2ccc(OCCC(=O)O)cc2Cl)n3Cc2cccc(Cl)c2Cl)CC1 [Example T85, 3-(3-chloro-4-(9-(2,3-dichlorobenzyl)-6-(1-methylcyclopropoxy)-9H-purin-8-yl)phenoxy)propanoic acid]
9 | 6.31 | Cc1ccnc(Cn2c(-c3ccc(OCCN4CCOCC4=O)cc3Cl)nc3c(OC4(C)CC4)ncnc32)c1 [Example T481, 4-(2-(3-chloro-4-(6-(1-methylcyclopropoxy)-9-((4-methylpyridin-2-yl)methyl)-9H-purin-8-yl)phenoxy)ethyl)morpholin-3-one]
10 | 10 | Cc1ccnc(Cn2c(-c3ccc(OCC(=O)N4CC[C@@](C)(O)C4)cc3Cl)nc3c(OC4(C)CC4)ncnc32)c1 [Example T581, (R)-2-(3-chloro-4-(6-(1-methylcyclopropoxy)-9-((4-methylpyridin-2-yl)methyl)-9H-purin-8-yl)phenoxy)-1-(3-hydroxy-3-methylpyrrolidin-1-yl)ethan-1-one]
11 | 3.98 | Cc1ccnc(Cn2c(-c3ccc(C(=O)N4CC5(CCN5)C4)cc3Cl)nc3c(OC4(C)CC4)ncnc32)c1 [Example T429, (3-chloro-4-(6-(1-methylcyclopropoxy)-9-((4-methylpyridin-2-yl)methyl)-9H-purin-8-yl)phenyl)(1,6-diazaspiro[3.3]heptan-6-yl)methanone]
12 | 39.8 | CC1(Oc2ncnc3c2nc(-c2ccc(OCCN4CCNCC4)cc2Cl)n3Cc2ncsc2Cl)CC1 [Example T145, 5-chloro-4-((8-(2-chloro-4-(2-(piperazin-1-yl)ethoxy)phenyl)-6-(1-methylcyclopropoxy)-9H-purin-9-yl)methyl)thiazole]
13 | 6.31 | Cc1ccnc(Cn2c(-c3ccc(OCC(C)(C)CO)cc3Cl)nc3c(OC4(C)CC4)ncnc32)c1 [Example T383, 3-(3-chloro-4-(6-(1-methylcyclopropoxy)-9-((4-methylpyridin-2-yl)methyl)-9H-purin-8-yl)phenoxy)-2,2-dimethylpropan-1-ol]
14 | 5.01 | Cc1ccnc(Cn2c(-c3ccc(CCN(C)C)cc3Cl)nc3c(OC4(C)CC4)ncnc32)c1 [Example T236, 2-(3-chloro-4-(6-(1-methylcyclopropoxy)-9-((4-methylpyridin-2-yl)methyl)-9H-purin-8-yl)phenyl)-N,N-dimethylethan-1-amine]
15 | 5.01 | CC(CCOc1ccc(-c2nc3c(OC4(C)CC4)ncnc3n2Cc2cc(Cl)ccc2C#N)c(Cl)c1)C(=O)O (racemic) [Example U9, 4-(3-chloro-4-(9-(5-chloro-2-cyanobenzyl)-6-(1-methylcyclopropoxy)-9H-purin-8-yl)phenoxy)-2-methylbutanoic acid]
16 | 3.98 | Cc1ccnc(Cn2c(-c3ccc(O[C@H]4CCOC4)cc3Cl)nc3c(OC4(C)CC4)ncnc32)c1 [Example T196, (S)-8-(2-chloro-4-((tetrahydrofuran-3-yl)oxy)phenyl)-6-(1-methylcyclopropoxy)-9-((4-methylpyridin-2-yl)methyl)-9H-purine]
17 | 12.6 | CC[C@H](CO)NC(=O)c1ccc(-c2nc3c(OC4(C)CC4)ncnc3n2Cc2cc(C)ccn2)c(Cl)c1 [Example T361, (R)-3-chloro-N-(1-hydroxybutan-2-yl)-4-(6-(1-methylcyclopropoxy)-9-((4-methylpyridin-2-yl)methyl)-9H-purin-8-yl)benzamide]
18 | 63.1 | Cc1ccnc(Cn2c(-c3ccc(C(=O)N(C)CCC#N)cc3Cl)nc3c(OC4(C)CC4)ncnc32)c1 [Example T286, 3-chloro-N-(2-cyanoethyl)-N-methyl-4-(6-(1-methylcyclopropoxy)-9-((4-methylpyridin-2-yl)methyl)-9H-purin-8-yl)benzamide]
19 | 6.31 | CC1(Oc2ncnc3c2nc(-c2ccc(OCCN4CC5(CCN5)C4)cc2Cl)n3Cc2cc(Cl)ccn2)CC1 [Example T486, 8-(4-(2-(1,6-diazaspiro[3.3]heptan-6-yl)ethoxy)-2-chlorophenyl)-9-((4-chloropyridin-2-yl)methyl)-6-(1-methylcyclopropoxy)-9H-purine]
20 | 7.94 | Cc1ccnc(Cn2c(-c3ccc(CC(=O)NC(C)C)cc3Cl)nc3c(OC4(C)CC4)ncnc32)c1 [Example T357, 2-(3-chloro-4-(6-(1-methylcyclopropoxy)-9-((4-methylpyridin-2-yl)methyl)-9H-purin-8-yl)phenyl)-N-isopropylacetamide]
21 | 3.98 | Cc1cnc(Cn2c(-c3ccc(OC4CCN(C)CC4)cc3Cl)nc3c(OC4(C)CC4)ncnc32)s1 [Example T241, 2-((8-(2-chloro-4-((1-methylpiperidin-4-yl)oxy)phenyl)-6-(1-methylcyclopropoxy)-9H-purin-9-yl)methyl)-5-methylthiazole]

Row | SMILES | IC50 [nM]
22 | Cc1ccnc(Cn2c(-c3ccc(CC(=O)N4CC(N5CCC5)C4)cc3Cl)nc3c(OC4(C)CC4)ncnc32)c1 [Example T603, 1-([1,3′-biazetidin]-1′-yl)-2-(3-chloro-4-(6-(1-methylcyclopropoxy)-9-((4-methylpyridin-2-yl)methyl)-9H-purin-8-yl)phenyl)ethan-1-one] | 5.01
